Measured values: patent US20250282736A1 (published 2025)

Protein sequences, listed by entry. Tags and fused reporters are not part of them. Lines headed by an entry give the natural chain unless they say otherwise; changes in a name come on top.
UniProt O75469: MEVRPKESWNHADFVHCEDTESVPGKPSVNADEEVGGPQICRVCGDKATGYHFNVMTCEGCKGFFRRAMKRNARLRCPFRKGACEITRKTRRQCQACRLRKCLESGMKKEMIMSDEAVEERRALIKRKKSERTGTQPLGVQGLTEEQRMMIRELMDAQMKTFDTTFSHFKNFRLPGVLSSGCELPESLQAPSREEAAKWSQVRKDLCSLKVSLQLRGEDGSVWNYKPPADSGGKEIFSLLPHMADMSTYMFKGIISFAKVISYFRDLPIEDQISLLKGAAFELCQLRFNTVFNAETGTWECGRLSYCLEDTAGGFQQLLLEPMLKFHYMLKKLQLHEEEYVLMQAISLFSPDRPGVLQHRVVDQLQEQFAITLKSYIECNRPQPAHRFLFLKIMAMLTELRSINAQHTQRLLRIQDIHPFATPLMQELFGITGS

Biological target: hPXR (Homo sapiens (Human), UniProt O75469)
Test: hPXR binding assay
Settings: read-out: Binding (% inhibition at 10 μM)

- inhibition at 10 µM: 14%
SMILES: CCCCOc1ccc(C(C)(C)C)cc1NC(=O)c1nnn(-c2cccc(OC)c2)c1C [H7]
